{"source": "patent US20220298257A1", "about": "(ELPIS BIOPHARMACEUTICALS, published 2022)", "biological_target": "T1, CD123 on the surface of CHO-K1 cells (UniProt P26951 19-378)", "T1 construct": "whole, on cells; Negative control cells that express CD123 but not CD22; also called CHOK1-CD123; cell surface CD123", "T1 sequence (looked up)": "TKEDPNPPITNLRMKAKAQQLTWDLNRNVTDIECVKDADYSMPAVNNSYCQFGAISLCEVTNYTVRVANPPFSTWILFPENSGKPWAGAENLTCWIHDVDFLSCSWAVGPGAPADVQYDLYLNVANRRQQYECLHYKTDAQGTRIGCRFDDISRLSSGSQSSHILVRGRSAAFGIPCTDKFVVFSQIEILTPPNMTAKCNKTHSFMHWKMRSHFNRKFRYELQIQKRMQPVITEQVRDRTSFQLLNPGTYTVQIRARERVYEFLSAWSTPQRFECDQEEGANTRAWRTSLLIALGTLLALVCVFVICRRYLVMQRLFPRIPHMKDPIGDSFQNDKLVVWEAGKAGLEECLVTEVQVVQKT", "assay": "FACS on CHO-K1 cells expressing CD123, anti-hFc Alexa 488", "data": [{"binder": "CSL362 (anti-CD123) (antibody, V domains shown) VH: EVQLVQSGAEVKKPGESLKISCKGSGYSFTDYYMKWARQMPGKGLEWMGDIIPSNGATFYNQKFKGQVTISADKSISTTYLQWSSLKASDTAMYYCARSHLLRASWFAYWGQGTMVTVSS VL: DIVMTQSPDSLAVSLGERATINCESSQSLLNSGNQKNYLTWYQQKPGQPPKPLIYWASTRESGVPDRFSGSGSGTDFTLTISSLQAEDVAVYYCQNDYSYPYTFGQGTKLEIKR", "values": [{"measurement": "EC50", "value": 0.017, "unit": "nM"}]}]}
